From patent publication US20260191848A1, “METHODS OF REVERSING PARP-RESISTANCE IN CANCER” (THE TRUSTEES OF COLUMBIA UNIVERSITY IN THE CITY OF NEW YORK, priority 2023, published 2026) come the findings set out here.

In assay [1] the test system is Bard1-def Tal-sensitive tumors. The assay is described as follows: In-vivo PARPi-response-and-recurrence model, Bard1-def orthotopic allograft (talazoparib-sensitive). The conditions noted are these: talazoparib 0.3 mg/kg body weight/day, five days/week, oral gavage, from 7 days post tumor-cell injection, vs vehicle.
The test system of assay [2] is Brca1-def Tal-sensitive tumors. The assay is described as follows: In-vivo PARPi-response-and-recurrence model, Brca1-def orthotopic allograft (talazoparib-sensitive). The conditions noted are these: talazoparib 0.3 mg/kg body weight/day, five days/week, oral gavage, from 14 days post tumor-cell injection, vs vehicle.

`Cn1ncnc1[C@H]1c2n[nH]c(=O)c3cc(F)cc(c23)N[C@@H]1c1ccc(F)cc1` [talazoparib]: the tumor growth result in assay [1] and in assay [2] was “inhibited tumor growth in mice for several weeks” throughout.
